Columns and labels:
Assay in all cases: biochemical
STK32C(h) = STK32C(h) (Homo sapiens, UniProt Q86UX6)
EphB3(h) = EphB3(h) (Homo sapiens, UniProt P54753)
USP5 (+Ubiquitin @ Bmax) = USP5 (+Ubiquitin @ Bmax) (Homo sapiens, UniProt P45974); settings: read-out: Activity (% Control)
Syk(h) = Syk(h) (Homo sapiens, UniProt P43405)
MRCKbeta(h) = MRCKbeta(h) (Homo sapiens, UniProt Q9Y5S2)
Endothelin ETA = Endothelin ETA (Homo sapiens, UniProt P25101); settings: read-out: % Inh.
Met(h) = Met(h) (Homo sapiens, UniProt P08581)
Axl(h) = Axl(h) (Homo sapiens, UniProt P30530)
Ataxin3 = Ataxin3 (Homo sapiens, UniProt P54252); settings: read-out: Activity (% Control)
IRAK1(h) = IRAK1(h) (Homo sapiens, UniProt P51617)
TrkB(h) = TrkB(h) (Homo sapiens, UniProt Q16620)
NEK7(h) = NEK7(h) (Homo sapiens, UniProt Q8TDX7)
CaMKIIdelta(h) = CaMKIIdelta(h) (Homo sapiens, UniProt Q13557)
USP8 = USP8 (Homo sapiens, UniProt P40818); settings: read-out: Activity (% Control)
NEK1(h) = NEK1(h) (Homo sapiens, UniProt Q96PY6)
PAK3(h) = PAK3(h) (Homo sapiens, UniProt O75914)
LKB1(h) = LKB1(h) (Homo sapiens, UniProt Q15831)
MSSK1(h) = MSSK1(h) (Homo sapiens, UniProt Q9UPE1)
OTUD3 = OTUD3 (Homo sapiens, UniProt Q5T2D3); settings: read-out: Activity (% Control)
CDK18/cyclinY(h) = CDK18/cyclinY(h) (Homo sapiens, UniProt Q07002)
TLK1(h) = TLK1(h) (Homo sapiens, UniProt Q9UKI8)
JNK2alpha2(h) = JNK2alpha2(h) (Homo sapiens, UniProt P45984)
CDKL2(h) = CDKL2(h) (Homo sapiens, UniProt Q92772)
GCN2(h) = GCN2(h) (Homo sapiens, UniProt Q9P2K8)
TAF1L(h) = TAF1L(h) (Homo sapiens, UniProt Q8IZX4)
MINK(h) = MINK(h) (Homo sapiens, UniProt Q8N4C8)
USP5 (+Ubiquitin @ Kd) = USP5 (+Ubiquitin @ Kd) (Homo sapiens, UniProt P45974); settings: read-out: Activity (% Control)
EphA5(h) = EphA5(h) (Homo sapiens, UniProt P54756)
CDK5/p35(h) = CDK5/p35(h) (Homo sapiens, UniProt Q00535)
FAK(h) = FAK(h) (Homo sapiens, UniProt Q05397)
MLK2(h) = MLK2(h) (Homo sapiens, UniProt Q02779)
TGFBR2(h) = TGFBR2(h) (Homo sapiens, UniProt P37173)
DRAK2(h) = DRAK2(h) (Homo sapiens, UniProt O94768)
ErbB4(h) = ErbB4(h) (Homo sapiens, UniProt Q15303)
ULK2(h) = ULK2(h) (Homo sapiens, UniProt Q8IYT8)
c-RAF(h) = c-RAF(h) (Homo sapiens, UniProt P04049)
MARK4(h) = MARK4(h) (Homo sapiens, UniProt Q96L34)
STK16(h) = STK16(h) (Homo sapiens, UniProt O75716)
BTK(h) = BTK(h) (Homo sapiens, UniProt Q06187)
Lyn(h) = Lyn(h) (Homo sapiens, UniProt P07948)
MST2(h) = MST2(h) (Homo sapiens, UniProt Q13188)

The chains behind the UniProt entries cited, without tags or fusion partners. Where a name states a change or a piece, a line headed by the entry shows the natural chain unless it says otherwise. Residues count along the entry.
UniProt Q9Y5S2: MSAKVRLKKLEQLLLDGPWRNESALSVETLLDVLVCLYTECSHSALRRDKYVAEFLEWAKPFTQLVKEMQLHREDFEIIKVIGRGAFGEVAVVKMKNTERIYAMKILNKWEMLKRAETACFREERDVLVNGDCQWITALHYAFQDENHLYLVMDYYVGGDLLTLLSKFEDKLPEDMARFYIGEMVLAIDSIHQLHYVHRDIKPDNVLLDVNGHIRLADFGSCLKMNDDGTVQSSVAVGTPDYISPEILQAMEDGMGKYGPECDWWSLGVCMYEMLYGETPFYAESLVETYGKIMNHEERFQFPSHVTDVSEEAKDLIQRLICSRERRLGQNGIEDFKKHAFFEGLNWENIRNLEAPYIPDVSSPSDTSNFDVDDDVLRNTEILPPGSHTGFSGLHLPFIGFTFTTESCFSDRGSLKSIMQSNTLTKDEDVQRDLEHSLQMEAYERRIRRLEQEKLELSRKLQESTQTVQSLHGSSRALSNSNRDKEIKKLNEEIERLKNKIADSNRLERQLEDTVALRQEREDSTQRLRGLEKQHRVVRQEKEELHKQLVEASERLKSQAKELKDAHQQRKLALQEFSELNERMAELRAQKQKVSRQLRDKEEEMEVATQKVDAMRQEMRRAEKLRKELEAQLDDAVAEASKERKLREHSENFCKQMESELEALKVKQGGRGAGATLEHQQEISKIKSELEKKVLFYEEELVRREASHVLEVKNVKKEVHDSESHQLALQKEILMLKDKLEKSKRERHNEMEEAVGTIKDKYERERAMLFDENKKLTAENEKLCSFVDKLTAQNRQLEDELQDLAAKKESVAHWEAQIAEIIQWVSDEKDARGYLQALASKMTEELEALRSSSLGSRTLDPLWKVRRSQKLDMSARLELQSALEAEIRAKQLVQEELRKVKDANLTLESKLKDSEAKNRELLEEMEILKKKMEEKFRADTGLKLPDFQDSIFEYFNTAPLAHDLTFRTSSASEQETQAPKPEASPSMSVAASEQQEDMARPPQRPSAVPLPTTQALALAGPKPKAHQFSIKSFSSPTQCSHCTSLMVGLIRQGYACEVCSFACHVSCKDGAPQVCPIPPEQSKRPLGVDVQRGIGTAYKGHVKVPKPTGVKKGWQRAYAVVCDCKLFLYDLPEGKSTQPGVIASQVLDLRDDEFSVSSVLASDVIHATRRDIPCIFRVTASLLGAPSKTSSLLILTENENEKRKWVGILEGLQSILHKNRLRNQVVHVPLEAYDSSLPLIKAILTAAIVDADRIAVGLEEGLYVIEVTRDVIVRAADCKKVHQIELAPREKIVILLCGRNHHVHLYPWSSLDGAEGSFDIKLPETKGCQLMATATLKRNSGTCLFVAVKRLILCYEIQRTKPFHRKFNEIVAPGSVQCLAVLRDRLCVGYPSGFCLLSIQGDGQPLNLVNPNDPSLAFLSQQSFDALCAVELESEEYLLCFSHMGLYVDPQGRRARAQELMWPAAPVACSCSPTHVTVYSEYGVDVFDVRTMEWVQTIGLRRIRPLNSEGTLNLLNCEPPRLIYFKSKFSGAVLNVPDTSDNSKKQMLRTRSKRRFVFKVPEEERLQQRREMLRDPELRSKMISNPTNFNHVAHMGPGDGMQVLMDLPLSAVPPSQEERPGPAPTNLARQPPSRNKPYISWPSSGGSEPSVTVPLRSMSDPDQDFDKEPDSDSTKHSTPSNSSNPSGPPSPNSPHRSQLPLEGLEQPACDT
UniProt P25101, 21-427: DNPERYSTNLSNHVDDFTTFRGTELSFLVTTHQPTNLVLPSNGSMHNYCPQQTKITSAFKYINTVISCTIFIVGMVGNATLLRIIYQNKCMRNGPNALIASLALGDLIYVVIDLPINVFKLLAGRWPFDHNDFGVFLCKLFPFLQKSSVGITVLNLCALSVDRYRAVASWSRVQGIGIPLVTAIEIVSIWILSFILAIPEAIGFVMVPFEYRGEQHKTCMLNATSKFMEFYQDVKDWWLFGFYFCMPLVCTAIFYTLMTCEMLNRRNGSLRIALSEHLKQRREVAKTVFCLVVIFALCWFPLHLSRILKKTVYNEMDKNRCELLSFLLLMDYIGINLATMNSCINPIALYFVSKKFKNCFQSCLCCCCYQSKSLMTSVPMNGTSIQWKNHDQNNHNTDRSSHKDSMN
UniProt Q8TDX7: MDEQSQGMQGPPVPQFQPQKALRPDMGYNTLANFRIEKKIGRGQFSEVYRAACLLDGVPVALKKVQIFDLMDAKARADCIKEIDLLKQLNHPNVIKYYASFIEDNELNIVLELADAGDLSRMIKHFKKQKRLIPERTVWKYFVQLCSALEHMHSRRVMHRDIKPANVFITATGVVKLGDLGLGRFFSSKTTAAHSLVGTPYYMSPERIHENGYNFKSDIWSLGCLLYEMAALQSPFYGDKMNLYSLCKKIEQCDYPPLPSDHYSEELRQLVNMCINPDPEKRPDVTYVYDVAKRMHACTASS
UniProt Q9UPE1, whole entry: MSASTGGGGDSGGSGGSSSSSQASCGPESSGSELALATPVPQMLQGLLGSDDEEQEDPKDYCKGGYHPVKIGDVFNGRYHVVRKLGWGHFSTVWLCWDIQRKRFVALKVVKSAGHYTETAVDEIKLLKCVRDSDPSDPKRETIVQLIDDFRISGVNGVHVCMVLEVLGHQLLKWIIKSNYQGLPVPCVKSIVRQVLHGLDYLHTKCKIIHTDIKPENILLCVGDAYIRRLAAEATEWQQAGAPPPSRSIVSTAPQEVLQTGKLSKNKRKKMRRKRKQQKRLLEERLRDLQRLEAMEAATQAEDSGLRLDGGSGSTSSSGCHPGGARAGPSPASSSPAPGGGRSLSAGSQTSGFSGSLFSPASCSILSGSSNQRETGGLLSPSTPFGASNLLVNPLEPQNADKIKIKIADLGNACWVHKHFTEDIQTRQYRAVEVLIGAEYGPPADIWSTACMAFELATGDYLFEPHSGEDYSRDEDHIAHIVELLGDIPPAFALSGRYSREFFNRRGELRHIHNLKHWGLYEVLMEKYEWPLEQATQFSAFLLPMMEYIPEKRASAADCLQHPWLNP
UniProt Q9UKI8: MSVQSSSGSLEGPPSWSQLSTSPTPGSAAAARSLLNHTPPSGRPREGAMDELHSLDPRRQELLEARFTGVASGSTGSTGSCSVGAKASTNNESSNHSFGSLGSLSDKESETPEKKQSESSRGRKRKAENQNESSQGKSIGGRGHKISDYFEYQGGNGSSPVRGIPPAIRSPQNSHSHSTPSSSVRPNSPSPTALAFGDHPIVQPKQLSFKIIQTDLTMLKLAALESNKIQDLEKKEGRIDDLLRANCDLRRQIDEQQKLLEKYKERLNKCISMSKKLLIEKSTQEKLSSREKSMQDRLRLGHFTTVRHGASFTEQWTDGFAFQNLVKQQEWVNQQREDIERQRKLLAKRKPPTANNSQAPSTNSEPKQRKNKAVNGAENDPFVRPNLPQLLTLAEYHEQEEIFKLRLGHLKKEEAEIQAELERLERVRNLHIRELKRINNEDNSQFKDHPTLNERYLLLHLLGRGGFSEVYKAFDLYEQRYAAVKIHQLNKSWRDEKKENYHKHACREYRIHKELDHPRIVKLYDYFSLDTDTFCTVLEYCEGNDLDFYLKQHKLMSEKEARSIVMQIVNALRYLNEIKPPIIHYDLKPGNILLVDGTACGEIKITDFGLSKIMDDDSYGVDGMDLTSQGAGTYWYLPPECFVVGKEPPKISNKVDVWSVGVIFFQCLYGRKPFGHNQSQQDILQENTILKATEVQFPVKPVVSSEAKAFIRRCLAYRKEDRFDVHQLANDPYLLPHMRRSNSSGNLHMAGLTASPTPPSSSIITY
UniProt P54756, 25-1037: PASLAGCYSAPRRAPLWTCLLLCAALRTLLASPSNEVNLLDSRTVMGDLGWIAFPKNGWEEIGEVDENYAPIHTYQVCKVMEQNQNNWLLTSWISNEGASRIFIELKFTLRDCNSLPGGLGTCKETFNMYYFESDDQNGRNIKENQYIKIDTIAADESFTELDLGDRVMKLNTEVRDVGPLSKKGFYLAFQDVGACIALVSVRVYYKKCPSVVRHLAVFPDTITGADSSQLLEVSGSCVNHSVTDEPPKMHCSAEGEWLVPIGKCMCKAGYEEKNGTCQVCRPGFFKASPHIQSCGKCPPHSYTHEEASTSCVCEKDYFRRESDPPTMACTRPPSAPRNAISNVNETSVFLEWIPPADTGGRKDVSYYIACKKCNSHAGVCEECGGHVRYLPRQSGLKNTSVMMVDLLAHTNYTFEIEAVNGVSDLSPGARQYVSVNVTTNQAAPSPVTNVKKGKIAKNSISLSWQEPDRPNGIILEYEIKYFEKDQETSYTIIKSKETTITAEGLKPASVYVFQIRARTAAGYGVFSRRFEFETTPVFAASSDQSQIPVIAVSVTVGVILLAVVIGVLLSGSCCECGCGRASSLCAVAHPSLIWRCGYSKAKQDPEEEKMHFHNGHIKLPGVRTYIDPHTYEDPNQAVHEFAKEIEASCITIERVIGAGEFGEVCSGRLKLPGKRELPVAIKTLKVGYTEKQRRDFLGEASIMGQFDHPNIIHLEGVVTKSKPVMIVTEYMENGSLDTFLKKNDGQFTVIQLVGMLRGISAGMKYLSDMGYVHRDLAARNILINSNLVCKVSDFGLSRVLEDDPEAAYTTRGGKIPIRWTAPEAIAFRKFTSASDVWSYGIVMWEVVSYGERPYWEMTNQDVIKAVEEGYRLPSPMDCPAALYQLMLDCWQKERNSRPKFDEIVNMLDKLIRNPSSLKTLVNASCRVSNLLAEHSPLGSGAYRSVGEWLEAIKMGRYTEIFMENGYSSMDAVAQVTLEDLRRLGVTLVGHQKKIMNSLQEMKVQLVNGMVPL
UniProt Q00535, whole entry: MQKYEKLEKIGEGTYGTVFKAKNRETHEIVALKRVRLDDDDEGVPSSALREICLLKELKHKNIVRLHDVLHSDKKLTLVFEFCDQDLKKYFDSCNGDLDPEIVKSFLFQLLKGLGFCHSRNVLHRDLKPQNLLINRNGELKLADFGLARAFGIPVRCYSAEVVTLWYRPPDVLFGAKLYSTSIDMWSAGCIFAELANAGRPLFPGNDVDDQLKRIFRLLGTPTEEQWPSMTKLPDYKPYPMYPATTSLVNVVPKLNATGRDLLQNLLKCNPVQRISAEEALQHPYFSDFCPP
UniProt Q02779: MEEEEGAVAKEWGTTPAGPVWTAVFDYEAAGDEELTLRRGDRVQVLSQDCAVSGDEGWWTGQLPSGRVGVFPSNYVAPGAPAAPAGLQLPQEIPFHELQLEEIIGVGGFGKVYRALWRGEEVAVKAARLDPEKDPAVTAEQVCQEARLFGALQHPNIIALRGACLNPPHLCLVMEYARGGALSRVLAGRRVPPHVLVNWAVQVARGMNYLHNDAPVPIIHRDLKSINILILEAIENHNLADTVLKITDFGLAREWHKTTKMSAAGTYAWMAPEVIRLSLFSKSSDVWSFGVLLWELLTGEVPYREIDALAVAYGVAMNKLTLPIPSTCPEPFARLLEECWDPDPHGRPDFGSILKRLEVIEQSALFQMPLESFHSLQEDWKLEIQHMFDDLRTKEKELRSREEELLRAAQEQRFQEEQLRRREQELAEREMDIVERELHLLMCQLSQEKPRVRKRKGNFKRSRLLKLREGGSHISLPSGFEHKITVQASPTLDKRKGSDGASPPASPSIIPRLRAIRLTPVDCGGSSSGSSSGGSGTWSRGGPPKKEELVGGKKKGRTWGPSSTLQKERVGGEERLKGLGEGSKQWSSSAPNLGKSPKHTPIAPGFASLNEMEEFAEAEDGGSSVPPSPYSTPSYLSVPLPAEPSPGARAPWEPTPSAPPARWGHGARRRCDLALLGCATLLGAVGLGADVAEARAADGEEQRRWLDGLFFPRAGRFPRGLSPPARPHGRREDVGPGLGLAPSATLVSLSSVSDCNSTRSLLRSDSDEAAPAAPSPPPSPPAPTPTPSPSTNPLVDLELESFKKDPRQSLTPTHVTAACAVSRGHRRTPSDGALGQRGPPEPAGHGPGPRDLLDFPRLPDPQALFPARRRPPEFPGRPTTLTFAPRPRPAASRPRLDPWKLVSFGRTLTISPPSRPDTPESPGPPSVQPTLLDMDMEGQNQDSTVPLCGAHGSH
UniProt Q13188: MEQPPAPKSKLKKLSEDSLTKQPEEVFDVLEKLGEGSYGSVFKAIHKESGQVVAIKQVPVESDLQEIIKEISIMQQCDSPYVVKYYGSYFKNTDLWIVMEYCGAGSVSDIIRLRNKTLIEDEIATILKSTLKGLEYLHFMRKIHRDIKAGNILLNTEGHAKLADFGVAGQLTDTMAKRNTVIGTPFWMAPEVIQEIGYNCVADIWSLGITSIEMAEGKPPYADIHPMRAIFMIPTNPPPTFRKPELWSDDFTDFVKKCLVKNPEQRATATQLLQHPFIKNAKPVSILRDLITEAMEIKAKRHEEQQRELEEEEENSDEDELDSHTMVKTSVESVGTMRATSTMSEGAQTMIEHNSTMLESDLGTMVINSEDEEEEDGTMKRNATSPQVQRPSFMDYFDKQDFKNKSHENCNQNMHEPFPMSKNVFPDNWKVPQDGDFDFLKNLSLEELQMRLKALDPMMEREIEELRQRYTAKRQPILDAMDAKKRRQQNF

CC(C)C[C@H](NC(=O)C1(C(F)(F)F)CCCCC1)C(=O)Nc1nnc(Cc2ccc(C#N)cc2)s1 [Compound 22, CC(C)C[C@H](NC(=O)C1(CCCCC1)C(F)(F)F)C(=O)Nc2nnc(Cc3ccc(cc3)C#N)s2]
inhibition at 10 µM (STK32C(h)): 7.05%
inhibition at 10 µM (EphB3(h)): -2.88%
remaining activity at 1 µM (USP5 (+Ubiquitin @ Bmax)): 96%
remaining activity at 10 µM (USP5 (+Ubiquitin @ Bmax)): 101%
inhibition at 10 µM (Syk(h)): 8.25%
inhibition at 10 µM (MRCKbeta(h)): 0.48%
inhibition at 10 µM (Endothelin ETA): 7%
inhibition at 10 µM (Met(h)): 7.84%
inhibition at 10 µM (Axl(h)): 5.28%
remaining activity at 1 µM (Ataxin3): 90%
remaining activity at 10 µM (Ataxin3): 90%
inhibition at 10 µM (IRAK1(h)): -2.41%
inhibition at 10 µM (TrkB(h)): 7.83%
inhibition at 10 µM (NEK7(h)): -1.75%
inhibition at 10 µM (CaMKIIdelta(h)): -3.4%
remaining activity at 10 µM (USP8): 77%
remaining activity at 50 µM (USP8): 69%
inhibition at 10 µM (NEK1(h)): 13%
inhibition at 10 µM (PAK3(h)): -0.66%
inhibition at 10 µM (LKB1(h)): 3.08%
inhibition at 10 µM (MSSK1(h)): -2.83%
remaining activity at 1 µM (OTUD3): 102%
remaining activity at 10 µM (OTUD3): 100%
inhibition at 10 µM (CDK18/cyclinY(h)): 2.07%
inhibition at 10 µM (TLK1(h)): 3.93%
inhibition at 10 µM (JNK2alpha2(h)): 6.67%
inhibition at 10 µM (CDKL2(h)): 10.4%
inhibition at 10 µM (GCN2(h)): 4.09%
inhibition at 10 µM (TAF1L(h)): -1.18%
inhibition at 10 µM (MINK(h)): -12.3%
remaining activity at 1 µM (USP5 (+Ubiquitin @ Kd)): 108%
remaining activity at 10 µM (USP5 (+Ubiquitin @ Kd)): 90%
inhibition at 10 µM (EphA5(h)): -2.12%
inhibition at 10 µM (CDK5/p35(h)): -11.6%
inhibition at 10 µM (FAK(h)): -23.6%
inhibition at 10 µM (MLK2(h)): 8.77%
inhibition at 10 µM (TGFBR2(h)): -0.85%
inhibition at 10 µM (DRAK2(h)): 6.43%
inhibition at 10 µM (ErbB4(h)): -3.69%
inhibition at 10 µM (ULK2(h)): 7.46%
inhibition at 10 µM (c-RAF(h)): -10.5%
inhibition at 10 µM (MARK4(h)): 3.52%
inhibition at 10 µM (STK16(h)): -9.98%
inhibition at 10 µM (BTK(h)): 0.23%
inhibition at 10 µM (Lyn(h)): 3.48%
inhibition at 10 µM (MST2(h)): -10.3%

CC(C)C[C@@H](NC(=O)C1(C(F)(F)F)CCCCC1)C(=O)Nc1nnc(Cc2ccc(C#N)cc2)s1 [Compound 21, N-[(1R)-1-[[5-[(4-Cyanophenyl)methyl]-1,3,4-thiadiazol-2-yl]carbamoyl]-3-methyl-butyl]-1-(trifluoromethyl)cyclohexanecarboxamide]
inhibition at 10 µM (STK32C(h)): 2.45%
inhibition at 10 µM (EphB3(h)): -3.42%
remaining activity at 1 µM (USP5 (+Ubiquitin @ Bmax)): 93%
remaining activity at 10 µM (USP5 (+Ubiquitin @ Bmax)): 101%
inhibition at 10 µM (Syk(h)): 21.1%
inhibition at 10 µM (MRCKbeta(h)): 6.66%
inhibition at 10 µM (Endothelin ETA): -7%
inhibition at 10 µM (Met(h)): 12.6%
inhibition at 10 µM (Axl(h)): -0.59%
remaining activity at 1 µM (Ataxin3): 109%
remaining activity at 10 µM (Ataxin3): 106%
inhibition at 10 µM (IRAK1(h)): -2.62%
inhibition at 10 µM (TrkB(h)): 10.2%
inhibition at 10 µM (NEK7(h)): 0.69%
inhibition at 10 µM (CaMKIIdelta(h)): -6.77%
remaining activity at 10 µM (USP8): 83%
remaining activity at 50 µM (USP8): 71%
inhibition at 10 µM (NEK1(h)): 13%
inhibition at 10 µM (PAK3(h)): -2.47%
inhibition at 10 µM (LKB1(h)): 0.83%
inhibition at 10 µM (MSSK1(h)): 8.63%
remaining activity at 1 µM (OTUD3): 102%
remaining activity at 10 µM (OTUD3): 101%
inhibition at 10 µM (CDK18/cyclinY(h)): 3.5%
inhibition at 10 µM (TLK1(h)): 4.27%
inhibition at 10 µM (JNK2alpha2(h)): 4.4%
inhibition at 10 µM (CDKL2(h)): 8.38%
inhibition at 10 µM (GCN2(h)): 1.83%
inhibition at 10 µM (TAF1L(h)): 8.62%
inhibition at 10 µM (MINK(h)): 1.61%
remaining activity at 1 µM (USP5 (+Ubiquitin @ Kd)): 105%
remaining activity at 10 µM (USP5 (+Ubiquitin @ Kd)): 110%
inhibition at 10 µM (EphA5(h)): 6.76%
inhibition at 10 µM (CDK5/p35(h)): -0.85%
inhibition at 10 µM (FAK(h)): -2.96%
inhibition at 10 µM (MLK2(h)): 10.2%
inhibition at 10 µM (TGFBR2(h)): 2.48%
inhibition at 10 µM (DRAK2(h)): 17.6%
inhibition at 10 µM (ErbB4(h)): -3.07%
inhibition at 10 µM (ULK2(h)): 8.08%
inhibition at 10 µM (c-RAF(h)): -9.81%
inhibition at 10 µM (MARK4(h)): 9.89%
inhibition at 10 µM (STK16(h)): -9.06%
inhibition at 10 µM (BTK(h)): 7.26%
inhibition at 10 µM (Lyn(h)): -1.62%
inhibition at 10 µM (MST2(h)): 4.72%

Reference: PMC10009755, “Discovery and Characterization of BAY-805, a Potent and Selective Inhibitor of Ubiquitin-Specific Protease USP21” (Journal of Medicinal Chemistry, 2023)
